Assay results reported in PubChem BioAssay AID488 (PCMD, 2006).
Only a part is listed here, and it is no random draw. Some tests of the compounds listed are not included; inactive here does not mean inactive elsewhere. Activity calls are given as the source filed them. Rule as the data show it: active = inhibition above about 22% (passing the limit was not always enough); inconclusive = no clear call, values can overlap the other calls.

Each compound was assayed against Cathepsin B (Homo sapiens) (UniProt P07858) (assay: human cathepsin B blockade, pooled library – biochemical, compound mixtures, AMC fluorescence, primary screen (AID 488;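 also: 0% = enzyme without compound and 100% = no enzyme blank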)). Settings: Purified cathepsin B, AMC dipeptide fluorescence, stronger effect = higher value,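 ten-compound pools at 5 µM per compound and 50 µM total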.
In the case of `O=C(OC1CN2CCC1CC2)C(CO)(c1ccccc1)c1ccccc1` (configuration not stated), the inhibition is reported as inactive: 4.68%. With `CN(C)c1cccc(C(=O)NCC2(N(C)C)CCCCC2)c1` the inhibition was inactive: 7.2%.
